Molecular target: His-tagged human insulin-like growth factor-2 receptor (hIGF2R-His) (human) (UniProt P11717)
Test: SPR; Biacore; hIGF2R-His amine-coupled (EDC/NHS) to a CM5 chip (6,311 RUs); ligands in PBS + 0.005% Tween 20, twofold series 10 to 0.019 ug/ml, 30 ul/min; fitted to single-site and two-state kinetic models and equilibrium binding

Kd: 10 to 20 nM | binding response: < 1000 RUs
Substance: Human HIS-tagged STC1 (hSTC1-His) (from UniProt P52823 34-247) (ligand)
